Chains of the proteins cited; added tags and fusions are not shown. Lines headed by an entry give the natural chain unless they say otherwise; changes in a name come on top. Residues count along the entry.
UniProt P53667, 330-637: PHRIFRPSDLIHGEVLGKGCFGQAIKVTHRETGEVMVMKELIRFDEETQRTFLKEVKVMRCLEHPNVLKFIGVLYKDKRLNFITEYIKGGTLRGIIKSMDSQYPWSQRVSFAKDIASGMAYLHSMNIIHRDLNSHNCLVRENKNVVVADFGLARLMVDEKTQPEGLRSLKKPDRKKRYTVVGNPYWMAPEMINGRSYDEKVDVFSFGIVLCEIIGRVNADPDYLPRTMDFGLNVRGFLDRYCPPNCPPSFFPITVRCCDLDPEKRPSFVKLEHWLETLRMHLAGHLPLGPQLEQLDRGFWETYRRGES
UniProt P53671: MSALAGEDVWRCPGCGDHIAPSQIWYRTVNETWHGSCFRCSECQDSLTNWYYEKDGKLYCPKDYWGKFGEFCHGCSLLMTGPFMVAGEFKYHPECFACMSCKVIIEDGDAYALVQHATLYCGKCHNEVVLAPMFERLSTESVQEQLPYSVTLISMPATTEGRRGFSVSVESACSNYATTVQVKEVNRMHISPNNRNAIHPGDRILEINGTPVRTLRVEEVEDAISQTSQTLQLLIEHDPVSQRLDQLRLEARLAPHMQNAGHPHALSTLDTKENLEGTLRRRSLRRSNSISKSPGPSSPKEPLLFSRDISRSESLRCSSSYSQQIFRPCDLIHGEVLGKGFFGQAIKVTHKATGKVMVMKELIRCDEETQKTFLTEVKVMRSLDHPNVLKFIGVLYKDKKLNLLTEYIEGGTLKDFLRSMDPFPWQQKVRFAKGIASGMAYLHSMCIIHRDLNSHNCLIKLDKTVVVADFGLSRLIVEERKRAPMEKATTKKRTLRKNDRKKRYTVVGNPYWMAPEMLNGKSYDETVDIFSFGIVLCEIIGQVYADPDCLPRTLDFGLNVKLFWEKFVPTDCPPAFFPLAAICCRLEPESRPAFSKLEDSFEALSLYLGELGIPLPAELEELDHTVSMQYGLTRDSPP

In article PMC9619402 (Journal of Medicinal Chemistry, 2022):

Assays:
[1] = cited from earlier work
[2] = target: LIMK1 (LIMK1_330–637, kinase catalytic domain) (Homo sapiens, UniProt P53667)
[3] = target: PAK pLIMK1 (PAK-phosphorylated LIMK1) (Homo sapiens, UniProt P53667); test: RapidFire mass spectrometry kinase assay, PAK-phosphorylated LIMK1; conditions: 5 nM LIMK1 + 0.4 nM PAK1 kinase domain; mean ± SEM
[4] = target: T1, LIMK1 (NanoLuc LIMK1 kinase fusion) (Homo sapiens, UniProt P53667); assay type: cell-based; conditions: HEK293 cells, 2 h; mean ± SEM
T1 construct: host or cells: HEK293
Method: (§1) HEK293 cells were resuspended in growth media following routine trypsinization, neutralization, and sedimentation techniques. Cell density was adjusted to 1 ×10^5 cells/mL for each transfection in a total of 25 mL media. The transfection mix was added directly to the cells and mixed gently by inversion. The cells were then plated into T-75 tissue culture flasks and incubated for 20 h.
(§2) Kit components were purchased from Promega (Hampshire, U.K.). […] NanoBRET Tracer #10 (27.5 μL) was diluted in 192.5 μL of DMSO for use as a positive control, which was further diluted with 880 μL of tracer dilution buffer. For negative control, 20 μL of DMSO was added to 80 μL of tracer dilution buffer. LIMK1/2-transfected HEK293 cells were trypsinized, centrifuged, and resuspended in 10 mL of Opti-MEM. Extracellular NanoLuc inhibitor was added at 1:10,000 dilution to the cells, after which 85 μL of cells/well were plated into flat-bottomed, white, 96-well plates. For positive control wells, 5 μL of NanoBRET Tracer #10 was added to wells without compound. For negative controls, the DMSO/tracer dilution buffer solution was added to wells without compound. For test compounds, 10 μL of diluted compounds from the intermediate plate were added in duplicate or DMSO (for control wells) at a final concentration of 0.5% DMSO in Opti-MEM. Plates were incubated at 37 °C and 5% CO2 for 2 h. […]

[5] = target: T2, LIMK2 (NanoLuc LIMK2 kinase fusion) (Homo sapiens, UniProt P53671); assay type: cell-based; conditions: HEK293 cells, 2 h; mean ± SEM
T2 construct: host or cells: HEK293
Method: as §1, §2

Compound	aqueous stability [1]	RapidFire pIC50 LIMK1 [2]	RapidFire pIC50 PAK pLIMK1 [3]	NanoBRET pIC50 LIMK1 [4]	NanoBRET pIC50 LIMK2 [5]
Cc1c[nH]c2ncnc(N3CCN(C(=O)Nc4cccc(OC(=O)N(C)C)c4)[C@@H](C)C3)c12 [Compound 6]	aqueous instability				
Cc1c[nH]c2ncnc(-c3ccc(NC(=O)N(CCO)c4ccccc4)cc3)c12 [Compound 8]		6.43 ± 0.36	5.69 ± 0.19	6.13 ± 0.15	6.26 ± 0.09
